Results published in PMC3843973 (Journal of medicinal chemistry, 2013).

Amino acid sequences for entries named in this document (tags omitted). Residues count along the entry.
UniProt P04757, 26-499: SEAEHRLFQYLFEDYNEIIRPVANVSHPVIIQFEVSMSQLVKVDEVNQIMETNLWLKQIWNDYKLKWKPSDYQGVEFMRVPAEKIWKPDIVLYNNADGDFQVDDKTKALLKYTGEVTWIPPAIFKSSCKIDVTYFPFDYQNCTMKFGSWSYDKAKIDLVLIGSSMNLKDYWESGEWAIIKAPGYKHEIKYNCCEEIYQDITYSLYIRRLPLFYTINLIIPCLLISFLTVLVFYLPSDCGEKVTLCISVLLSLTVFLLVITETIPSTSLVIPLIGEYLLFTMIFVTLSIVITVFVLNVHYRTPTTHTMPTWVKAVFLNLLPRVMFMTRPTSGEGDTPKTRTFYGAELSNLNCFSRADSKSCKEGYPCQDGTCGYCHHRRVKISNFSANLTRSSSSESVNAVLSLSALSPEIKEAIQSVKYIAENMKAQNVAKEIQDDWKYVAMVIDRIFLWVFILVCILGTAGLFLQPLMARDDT
UniProt P12392, 21-495: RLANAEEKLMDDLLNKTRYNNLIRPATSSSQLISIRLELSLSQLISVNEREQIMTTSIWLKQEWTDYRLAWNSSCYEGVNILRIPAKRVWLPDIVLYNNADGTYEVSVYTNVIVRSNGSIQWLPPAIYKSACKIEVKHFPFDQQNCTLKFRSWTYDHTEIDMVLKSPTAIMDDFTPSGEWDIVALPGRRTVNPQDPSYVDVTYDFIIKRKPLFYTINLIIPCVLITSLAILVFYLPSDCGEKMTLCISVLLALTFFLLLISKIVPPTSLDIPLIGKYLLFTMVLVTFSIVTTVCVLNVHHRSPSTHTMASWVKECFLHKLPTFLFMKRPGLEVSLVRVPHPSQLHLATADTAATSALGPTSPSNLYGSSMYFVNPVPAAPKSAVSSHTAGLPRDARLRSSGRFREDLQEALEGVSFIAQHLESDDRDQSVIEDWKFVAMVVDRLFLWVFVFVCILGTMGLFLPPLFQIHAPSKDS
UniProt P17787, 26-502: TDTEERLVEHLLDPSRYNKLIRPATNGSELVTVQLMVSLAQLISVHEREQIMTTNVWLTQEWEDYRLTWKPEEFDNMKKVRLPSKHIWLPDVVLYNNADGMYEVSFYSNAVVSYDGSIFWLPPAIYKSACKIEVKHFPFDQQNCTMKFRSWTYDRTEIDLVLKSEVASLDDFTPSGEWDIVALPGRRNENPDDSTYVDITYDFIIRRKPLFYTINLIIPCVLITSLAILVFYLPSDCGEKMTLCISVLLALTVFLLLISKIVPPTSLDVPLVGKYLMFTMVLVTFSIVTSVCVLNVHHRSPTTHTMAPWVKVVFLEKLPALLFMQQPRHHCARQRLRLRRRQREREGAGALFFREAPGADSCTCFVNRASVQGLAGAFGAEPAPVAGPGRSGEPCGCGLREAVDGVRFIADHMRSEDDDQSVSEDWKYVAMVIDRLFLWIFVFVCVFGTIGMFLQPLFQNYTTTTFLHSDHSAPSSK
UniProt P43681, 29-627 limits assumed: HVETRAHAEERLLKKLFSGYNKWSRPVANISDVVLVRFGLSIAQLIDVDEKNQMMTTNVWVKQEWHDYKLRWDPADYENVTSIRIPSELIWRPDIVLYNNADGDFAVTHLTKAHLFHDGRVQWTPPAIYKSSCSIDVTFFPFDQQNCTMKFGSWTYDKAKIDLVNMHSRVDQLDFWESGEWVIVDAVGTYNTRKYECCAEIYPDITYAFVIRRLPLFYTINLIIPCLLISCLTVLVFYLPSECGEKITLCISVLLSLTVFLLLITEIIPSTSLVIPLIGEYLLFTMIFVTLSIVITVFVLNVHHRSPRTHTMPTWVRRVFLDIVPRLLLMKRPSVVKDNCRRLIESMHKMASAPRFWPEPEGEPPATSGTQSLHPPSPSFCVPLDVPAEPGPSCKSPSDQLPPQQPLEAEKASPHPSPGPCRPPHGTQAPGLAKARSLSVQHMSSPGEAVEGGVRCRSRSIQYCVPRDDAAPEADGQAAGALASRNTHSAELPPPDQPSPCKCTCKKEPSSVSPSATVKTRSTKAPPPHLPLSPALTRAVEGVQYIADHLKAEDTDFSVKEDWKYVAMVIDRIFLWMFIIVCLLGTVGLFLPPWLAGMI

Columns and labels:
rat α3β4 nAChR = rat α3β4 nAChR (Rattus norvegicus, UniProt P04757+P12392); experiment: biochemical; settings: read-out: Ki α3β4
human α4β2-nAChRs = human α4β2-nAChRs (Homo sapiens, UniProt P17787+P43681)

| Compound | inhibition at 10 µM (rat α3β4 nAChR) [%] | Agonism α4β2 Efficacy at HS (human α4β2-nAChRs) [%] |
| --- | --- | --- |
| COCC[C@H]1C[C@@H]1c1cncc(OC[C@@H]2CCCN2)c1.O=C(O)C(F)(F)F [Compound 24, 3-[(2(S)-Pyrrolidinyl)methoxy]-5-[(1S,2R)-2-(2-methoxyethyl)cyclopropyl]pyridine Trifluoroacetate] | < 50 | – |
| CN1CCC[C@H]1c1cccnc1 [nicotine, reference compound] | – | 125 ± 10 |
